Results on one substance are retold here after patent US11266706B2, “Method for preventing or alleviating lipid metabolism disorders using composition containing green tea extract with increased specific ingredient content” (AMOREPACIFIC CORPORATION, priority 2017, dated 2022).

The series is described as follows: Stability of each ingredient according to time and temperature (HPLC content). Format: physicochemical. Set-up: content of ingredient: unit not given here. As for the experimental part: In order to compare the catechin contents of the fermented green tea extract, each sample was analyzed by WATERS 2695 HPLC manufactured by Alliance, and analyzed using an ODS (C18) column. The content of catechin including GCG over time maintained at 80° C. is shown in Table 1, the GCG content during this process was tracked, and the time zone in which the most amount of GCG was present was confirmed. Each numerical value in Table 1 indicates the wt % of the corresponding ingredient, based on the total weight ratio of the extract.

Regarding (−)-catechin gallate [CG], the content of ingredient is, setting by setting: (Day 1 (Feb. 20, 2017)) 1.04; (Week 1 (Feb. 27, 2017)) 1.20; (Week 2 (Mar. 6, 2017)) 1.19; (Week 16: 45° C./Normal pressure) 1.22; (Week 16: Room temperature/Normal pressure) 1.21; (Week 25: 45° C./Normal pressure) 1.13. The content of ingredient by setting is: (Week 25: Refrigerated/Normal pressure) 1.12; (Week 25: Room temperature/Normal pressure) 1.11. The “stability of ingredient content over time and temperature” value (summary in words of Table 3, FIGS. 6 to 8) is listed as “maintained relatively stably”.
